In this data set the test system is B. subtilis cells.

Read-outs that look alike come from different tables or passages of the source.

Take “Janelia Fluor X 554 (JFX554) HaloTag ligand”: the “Fold-change in CFUs/mL, labeled” value turned out to be 2.7 ± 0.7 (Halo-DnaE DnaX-mYPet strain, 1 nM JFX554, after 1 h incubation, mean ± standard deviation (mock-labeled 2.6 ± 0.5)) and 2.3 ± 0.5 (PolC-Halo DnaX-mYPet strain, 500 pM JFX554, after 1 h incubation, mean ± standard deviation (mock-labeled 2.1 ± 0.2)).
